Experimental data: ChEMBL document CHEMBL5236619, “Design and Optimization of 1H-1,2,3-Triazole-4-carboxamides as Novel, Potent, and Selective Inverse Agonists and Antagonists of PXR” (J Med Chem, 2022)

Biological target: T1, PXR (NR1I2) ligand binding domain (Homo sapiens, UniProt O75469)
T1 sequence (O75469 whole entry): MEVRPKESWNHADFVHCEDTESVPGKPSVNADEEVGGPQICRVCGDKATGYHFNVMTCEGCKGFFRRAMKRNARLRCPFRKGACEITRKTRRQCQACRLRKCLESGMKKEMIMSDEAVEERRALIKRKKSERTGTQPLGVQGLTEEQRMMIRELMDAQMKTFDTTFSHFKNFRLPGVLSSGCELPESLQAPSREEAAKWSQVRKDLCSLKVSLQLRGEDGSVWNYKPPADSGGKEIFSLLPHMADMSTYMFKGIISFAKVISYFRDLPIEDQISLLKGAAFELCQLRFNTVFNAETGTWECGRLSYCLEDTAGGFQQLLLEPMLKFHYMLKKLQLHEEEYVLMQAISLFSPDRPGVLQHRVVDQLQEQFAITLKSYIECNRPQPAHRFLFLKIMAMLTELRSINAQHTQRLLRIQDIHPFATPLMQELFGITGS
Assay: Inhibition of BODIPY FL vindoline binding to recombinant human GST-tagged PXR LBD (111 to 434 residues) expressed in baculovirus infected insect cells at 10 uM incubated for 1 mins under shaking condition followed by 60 mins under dark condition by TR-FRET assay relative to control
Conditions: probe BODIPY FL vindoline, time 61 min

- inhibition at 1.017 h, 10 µM: 14%
SMILES: CCCCOc1ccc(C(C)(C)C)cc1NC(=O)c1nnn(-c2cccc(OC)c2)c1C
